Measured values from PubChem BioAssay (EPA / NIEHS).
Several values for one entry are separate records, joined by “and”; a condition that tells them apart may be missing. Identical values can stand only once. The entries are a selection whose mix differs from that of the whole data set. The source holds several records for some structures; these can differ, active in one and inactive in another. Activity calls are given as the source filed them. The calls were made as follows: active = hit-call score of the fitted dose curve at least 0.9, where 1 is the maximum; inactive = score below 0.9.

What was measured:
[1] = APR_HepG2_CellLoss_72hr: Apredica 72-hour HepG2 Assay for Cell Loss (AID 2282915); conditions: high-content imaging
[2] = APR_HepG2_P-H2AX_72hr: Apredica 72-hour HepG2 Assay for H2AX Phosphorylation (AID 2282916); conditions: imaging, actives raise or lower the signal;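 also: phospho-histone H2A.x immunostain intensity per cell marking DNA damage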
Procedure, shortened: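 Human hepatoma HepG2 cells are dosed across ten concentrations (0.39 to 200 uM, 0.5% v/v DMSO) and incubated 72 hr. Phospho-histone H2A.x is then detected by antibody staining alongside c-Jun and Hoechst, and quantified by automated fluorescence imaging.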

[3] = APR_HepG2_MitoMembPot_72hr: Apredica 72-hour HepG2 Assay for Mitochondrial Membrane Potential (AID 2282917); conditions: imaging, actives raise or lower the signal
Procedure: APR_HepG2_72hr is a cell-based, multiplexed-readout assay that uses HepG2, a human liver cell line, with measurements taken at 72 hours after chemical dosing in a 384-well plate.APR_HepG2_MitoMembPot_72hr is one of 10 assay component(s) measured or calculated from the APR_HepG2_72hr assay. It is designed to make measurements of dye binding, a form of membrane potential reporter, as detected with fluorescence intensity signals by HCS Fluorescent Imaging technology.Data from the assay component APR_HepG2_MitoMembPot_72hr was analyzed into 1 assay endpoint. This assay endpoint, APR_HepG2_MitoMembPot_72hr, was analyzed with bidirectional fitting relative to DMSO as the negative control and baseline of activity. Using a type of membrane potential reporter, gain or loss-of-signal activity can be used to understand changes in the signaling. Furthermore, this assay endpoint can be referred to as a primary readout, because this assay has produced multiple assay endpoints where this one serves a signaling function. To generalize the intended target to other relatable targets, this assay endpoint is annotated to the cell morphology intended target family, where the subfamily is organelle conformation.
(§1) Cells were treated with dimethyl sulfoxide (DMSO) as a solvent control at a final concentration of 0.5% v/v or with compounds in DMSO with a resulting final DMSO concentration of 0.5% v/v. Compound treatment was done at concentrations of 0.39, 0.78, 1.56, 3.12, 6.24, 12.5, 25, 50, 100, and 200 uM in duplicate on each plate. Cells were treated with compounds for 1, 24, or 72 hr. Carbonyl […] m-chloro-phenylhydrazone (CCCP) and taxol were used as positive controls for mitochondrial function and cytoskeletal stability, respectively; DMSO served as the negative control for this experiment. Cells were fixed by the direct addition of 50 uL formaldehyde in Hank's Balanced Salt Solution (HBSS) to a final concentration of 3.7%. After incubation in the fixation medium for 30 min at room temperature (293-298 K), cells were rinsed twice with HBSS and treated with cell permeabilization buffer (16 uL of 0.5% Triton X-100) for 10 min at room temperature (293-298 K) before labeling. For mitochondrial membrane potential and mitochondrial measurements, pre-fixed cells were incubated with 50 uL of MitoTracker Red CMXRos (Invitrogen) at a concentration of 250 nM for 30 min before fixation. In the remaining cases, post-fixed cells were labeled by incubation with a multiplexed mixture of primary antibodies in HBSS for 60 min at room temperature (293-298 K) to detect immunoreactivity of c-Jun (1:500), phospho-histone H3 (1:100), phospho-histone H2A.x (1:200), p53 (1:400), alpha-tubulin (1:200) and Hoechst 33342 (2 ug/mL). […]

[4] = APR_HepG2_MitoticArrest_72hr: Apredica 72-hour HepG2 Assay for Mitotic Arrest (AID 2282918); conditions: high-content imaging, actives raise or lower the signal
Procedure: APR_HepG2_72hr is a cell-based, multiplexed-readout assay that uses HepG2, a human liver cell line, with measurements taken at 72 hours after chemical dosing in a 384-well plate.APR_HepG2_MitoticArrest_72hr is one of 10 assay component(s) measured or calculated from the APR_HepG2_72hr assay. It is designed to make measurements of cell phenotype, a form of morphology reporter, as detected with fluorescence intensity signals by HCS Fluorescent Imaging technology.Data from the assay component APR_HepG2_MitoticArrest_72hr was analyzed into 1 assay endpoint. This assay endpoint, APR_HepG2_MitoticArrest_72hr, was analyzed with bidirectional fitting relative to DMSO as the negative control and baseline of activity. Using a type of morphology reporter, measures of protein for gain or loss-of-signal activity can be used to understand the signaling at the pathway-level as they relate to the gene . Furthermore, this assay endpoint can be referred to as a primary readout, because this assay has produced multiple assay endpoints where this one serves a signaling function. To generalize the intended target to other relatable targets, this assay endpoint is annotated to the cell cycle intended target family, where the subfamily is arrest.
as §1

[5] = APR_HepG2_MicrotubuleCSK_72hr: Apredica 72-hour HepG2 Assay for Microtubule CSK Stabilty (AID 2282919); conditions: HepG2 microtubule cytoskeleton, high-content imaging, actives raise or lower the signal
Procedure, shortened: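 High-content imaging of alpha-tubulin staining in fixed HepG2 cells after 72 hr treatment with ten concentrations from 0.39 to 200 uM (0.5% DMSO). Fitting was bidirectional against DMSO; taxol served as positive control.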

[6] = APR_HepG2_P-H2AX_24hr: Apredica 24-hour HepG2 Assay for H2AX Phosphorylation (AID 2282920); conditions: high-content imaging, actives raise or lower the signal
Procedure, shortened: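 HepG2 human liver cells were exposed for 24 hr to compounds at 0.39–200 uM in duplicate, with 0.5% v/v DMSO final. Fixed cells were immunostained for phospho-histone H2A.x plus Hoechst 33342, imaged by HCS fluorescence, and fitted bidirectionally against DMSO.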

[7] = APR_HepG2_StressKinase_72hr: Apredica 72-hour HepG2 Assay for Stress Kinase (AID 2282921); conditions: HepG2 stress kinase (phospho-c-Jun) imaging, actives raise or lower the signal
Procedure, shortened: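 After a 72 h compound treatment spanning 0.39 to 200 uM, formaldehyde-fixed cells are labelled for phosphorylated c-Jun and nuclei, imaged by automated fluorescence microscopy, and activity is fitted in both directions relative to DMSO controls.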

[8] = APR_HepG2_StressKinase_24hr: Apredica 24-hour HepG2 Assay for Stress Kinase (AID 2282922); conditions: HepG2 stress kinase (phospho-c-Jun) imaging, actives raise or lower the signal
Procedure, shortened: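 High-content imaging of phospho-c-Jun immunofluorescence in fixed, permeabilized HepG2 cells after 24 h dosing. Ten concentrations, 0.39 to 200 uM, run in duplicate at 0.5% v/v DMSO; gain or loss of signal versus DMSO.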

[9] = APR_HepG2_p53Act_72hr: Apredica 72-hour HepG2 Assay for p53 Activation (AID 2282923); conditions: high-content imaging, actives raise or lower the signal;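 also: average cellular p53 protein immunofluorescence intensity in HepG2 cells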
Procedure, shortened: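 Imaging-based endpoint: after 72 hr compound exposure (up to 200 uM, 0.5% DMSO), fixed and permeabilized monolayers were labelled with anti-p53 antibody and imaged; signal change in either direction was fitted relative to DMSO controls.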

[10] = APR_HepG2_MitoMass_72hr: Apredica 72-hour HepG2 Assay for Mitochondrial Mass (AID 2282924); conditions: high-content imaging, actives raise or lower the signal;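 also: MitoTracker Red CMXRos stain intensity per cell imaged as mitochondrial mass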
Procedure, shortened: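 Readout is imaged MitoTracker Red (250 nM, 30 min, pre-fixation) signal, fitted bidirectionally against DMSO baseline. Human HepG2 liver cells received compound 0.39–200 uM in duplicate for 72 hr, final DMSO 0.5%.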

Compound	AC50 [1]	AC50 [2]	outcome [3]	AC50 [4]	AC50 [5]	outcome [6]	outcome [7]	outcome [8]	AC50 [9]	AC50 [10]	outcome [2]	outcome [4]	AC50 [6]	AC50 [8]	outcome [10]	outcome [1]	outcome [5]	outcome [9]	AC50 [3]
Cc1cc([N+](=O)[O-])cc([N+](=O)[O-])c1O	active: 66.1 µM	active: 104 µM	inactive	active: 81.7 µM	active: 86.7 µM	inactive	inactive	inactive	active: 98.6 µM	active: 104 µM									
CC(C)OP(=S)(OC(C)C)SCCNS(=O)(=O)c1ccccc1			inactive			inactive	inactive	inactive		active: 92.8 µM	inactive	inactive	active: 113 µM and active: 110 µM	active: 121 µM and active: 119 µM	inactive				
CN(C(=O)Cc1cccc2occc12)[C@H]1CC[C@@]2(CCCO2)C[C@@H]1N1CCCC1			inactive			inactive	inactive	inactive			inactive	inactive			inactive	inactive	inactive	inactive	
O=C1C2CC=CCC2C(=O)N1SC(Cl)(Cl)C(Cl)Cl (centres undefined)				active: 100 µM	active: 18.4 µM	inactive	inactive	inactive		active: 20.8 µM	inactive							inactive	active: 99.7 µM
